Data: patent US11028087B2, “2,6-disubstituted-9-cyclopentyl-9H-purines, use thereof as medicaments, and pharmaceutical compositions” (UNIVERZITA PALACKEHO V OLOMOUCI, priority 2017, dated 2021)

Key:
[1] = tested on: FLT3 phosphorylation in MV4-11 xenograft; assay: MV4-11 xenograft target modulation, pFLT3 immunoblot; type: in vivo, mice; details: single dose 10 mg/kg (264 intraperitoneal, Quizartinib oral gavage)
[2] = tested on: caspase-3/7 in MV4-11 cells; assay: Caspase-3/7 activity, combinations with other anticancer drugs; details: 24 hours
[3] = target: panel of kinases; assay: Kinase selectivity screen, biochemical phosphorylation assays (Carna Biosciences); details: 10 nM

SMILES	pFLT3 level in tumor at 24 hours [1]	relative caspase activity, concentration (nM) 10 ([2]; 10 nM compound 264)	relative caspase activity, concentration (nM) 100 ([2]; 100 nM compound 264)	kinase inhibitory activity in words ([3]; TRK, CAMK2, SIK, YES, FMS, KIT (D816V), MNK2, ACK and SRC)	kinase inhibitory activity in words ([3]; against FLT3, PDGFRα/β)
CC(C)(C)c1cc(NC(=O)Nc2ccc(-c3cn4c(n3)sc3cc(OCCN5CCOCC5)ccc34)cc2)no1 [Quizartinib, reference compound]	elevated level of pFLT3				
NC1CCC(Nc2nc(Nc3ccc(CN4CCOCC4)cc3)c3ncn(C4CCCC4)c3n2)CC1 (centres unmarked) [Compound 264]		3.51	6.32	significant inhibition	strong inhibitory activity
